Measurements reported in PubChem BioAssay AID1961 (Sanford-Burnham Center for Chemical Genomics, 2009).
Only a part is listed here, and it is no random draw. The source made the active and inactive calls.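 Rule for the calls: active = activation above 40% with more than 50 cells counted in the well; inconclusive = wells holding fewer than 50 cells, flagged as toxic or sparse; inactive = the rest.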

By UniProt entry, the sequences of proteins in these tests, tags left out.
UniProt Q9Y2T6, whole entry: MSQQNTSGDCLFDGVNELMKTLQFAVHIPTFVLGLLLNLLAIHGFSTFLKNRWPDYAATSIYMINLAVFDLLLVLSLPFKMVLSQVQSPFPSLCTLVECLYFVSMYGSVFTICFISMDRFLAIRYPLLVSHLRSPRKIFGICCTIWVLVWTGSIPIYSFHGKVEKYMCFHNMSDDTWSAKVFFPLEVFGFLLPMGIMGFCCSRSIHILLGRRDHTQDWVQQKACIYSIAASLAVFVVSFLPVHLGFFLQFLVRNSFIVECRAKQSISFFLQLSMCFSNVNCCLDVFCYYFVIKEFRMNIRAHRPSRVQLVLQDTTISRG

The compounds below were run against G-protein coupled receptor 55 (Homo sapiens) (UniProt Q9Y2T6) (assay: GPR55 agonists via beta-arrestin recruitment, primary screen, imaging, U2OS cells, beta-arrestin-GFP redistribution (AID 1961;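 for activation: U2OS osteosarcoma cells stably expressing GPR55 and beta-arrestin-GFP; plate controls were DMSO negative control for no effect and LPI positive control for full effect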)). Conditions: at 10 µM; stronger effect = higher value.

SMILES	activation
O=P(Nc1nccs1)(c1ccccc1)c1nc2ccccc2s1 (stereo unspecified)	inactive
O=C(O)c1cccc(Nc2c([N+](=O)[O-])cc([N+](=O)[O-])cc2[N+](=O)[O-])c1	inactive: -1.9%
NC(=O)Nc1ccc([As](=O)(O)O)cc1	inactive
CN(C(=O)Cc1ccccc1)[C@@H]1CC[C@]2(CCCO2)C[C@H]1N1CCCC1	inactive
CC1=NCCc2c1[nH]c1ccccc21.O=[N+]([O-])c1cc([N+](=O)[O-])c(O)c([N+](=O)[O-])c1	inactive: 1.4%
O=[N+]([O-])c1ccc2c(c1)nnn2O	inactive
O=C(OC1CN2CCC1CC2)c1ccc(Cl)cc1 (stereo unspecified)	inactive
CS(=O)(=O)c1ccc(Cl)c(NC(=O)COC(=O)C(O)(c2ccccc2)c2ccccc2)c1	inactive
COc1ccccc1OP(C)(=O)Nc1cccc(Br)c1 (stereo unspecified)	inactive: 0%
O=[As](O)(O)c1cccnc1	inactive
COc1cc(C(=O)NCC2(N3CCOCC3)CCCCC2)cc(Cl)c1OC(C)C	inactive
Cc1cc(C)cc(OP(C)(=O)Nc2ccc(C)cc2C)c1 (stereo unspecified)	inactive: -0.1%
O=[As](O)(c1cccc(O)c1)c1cccc(O)c1	inactive
CCOC(=O)c1ccc(NP(C)(=O)Oc2cc(C)cc(C)c2)cc1 (stereo unspecified)	inactive: 0.7%
Cc1cc(C)cc(OP(C)(=O)Nc2ccccn2)c1 (stereo unspecified)	inactive: -0.1%
CP(=O)(Nc1cccc(Br)c1)Oc1ccccc1 (stereo unspecified)	inactive: 0.6%
Cc1ccc(C)c(NP(C)(=O)Oc2ccccc2)c1 (stereo unspecified)	inactive: 0.3%
O=[N+]([O-])c1cc([N+](=O)[O-])c(-n2nnc3ccccc32)c([N+](=O)[O-])c1	inactive: -0.4%
O=P1(Nc2ccccn2)COc2ccccc2OC1	inactive
Cc1nc2ccc3ccccc3c2s1.O=[N+]([O-])c1cc([N+](=O)[O-])c(O)c([N+](=O)[O-])c1	inactive: -0.3%
O=[As](O)(c1ccccc1Br)c1ccccc1Br	inactive
Cc1nn(-c2ccccc2)c2c1P(=O)(N1CCOCC1)N(C)C(c1ccccc1)=N2 (stereo unspecified)	inactive

SMILES	activation
CCOC(=O)C(CC)C1=NC(C)(C)Cc2ccccc21.O=[N+]([O-])c1cc([N+](=O)[O-])c(O)c([N+](=O)[O-])c1 (stereo unspecified)	inactive: -0.2%
O=[N+]([O-])c1cc([N+](=O)[O-])c(Nc2nnnn2CCO)c([N+](=O)[O-])c1	inactive: 0%
O=C(/C=C/c1ccccc1)OC1CN2CCC1CC2 (stereo unspecified)	inactive
COc1ccccc1OP(C)(=O)Nc1c(C)cccc1C (stereo unspecified)	inactive: 0.2%
CN1CCCCC1COC(=O)C1(O)c2ccccc2CCc2ccccc21 (stereo unspecified)	inactive: -0.2%
CCCOc1ccc(NP(C)(=O)Oc2ccc(Cl)cc2)cc1 (stereo unspecified)	inactive: -0.1%
Nc1cccc([As](=O)(O)c2ccccc2)c1	inactive
CP(=O)(Nc1ccc(SC(F)(F)F)cc1)Oc1ccccc1 (stereo unspecified)	inactive: -0.2%
O=[As](O)(c1cccs1)c1cccs1	inactive
O=P1(Nc2ccc(Br)cn2)COc2ccccc2OC1	inactive
CCOC(=O)Nc1ccc([As](=O)(O)O)c(O)c1	inactive
Cc1cc(SC(NC(=O)c2ccccc2)C(Cl)(Cl)Cl)nc(C(C)C)n1 (stereo unspecified)	inactive
CCCCOc1ccc(C(=O)NCC2(N3CCCCC3)CCCCC2)cc1OC	inactive
CP(=S)(Nn1cnnc1)Oc1ccccc1 (stereo unspecified)	inactive: -0.1%
COc1ccccc1OP(C)(=O)Nc1ccccc1 (stereo unspecified)	inactive: 0.1%
O=P(Nc1ccccn1)(c1cccc2ccccc12)c1cccc2ccccc12	inactive
O=[N+]([O-])c1ccc(Nc2ccc(Oc3ccc([N+](=O)[O-])cc3[N+](=O)[O-])cc2)c([N+](=O)[O-])c1	inactive
CP(=O)(Nc1ccccc1Br)Oc1ccccc1 (stereo unspecified)	inactive: -0.2%
CP(=O)(Oc1ccccc1)OC(c1ccccc1)C(F)(F)F (stereo unspecified)	inactive: 0.1%
COP1(=S)c2c(C)nn(CCC#N)c2N=C(c2ccc(F)cc2)N1C (stereo unspecified)	inactive
Cc1cccc(C)c1OP(C)(=O)Nc1ccc(SC(F)(F)F)cc1 (stereo unspecified)	inactive: 0%
CP(=O)(Nc1ccc(SC(F)(F)F)cc1)Oc1ccc(Cl)cc1 (stereo unspecified)	inactive: -0.1%

SMILES	activation
Cc1cc(C)cc(OP(C)(=O)Nc2ccc(SC(F)(F)F)cc2)c1 (stereo unspecified)	inactive: 0.3%
CP(=O)(NC(=O)Nc1ccccc1)Oc1ccccc1 (stereo unspecified)	inactive: 0.2%
CCc1ccc(OP(C)(=O)N2CCN(c3ccc([N+](=O)[O-])cc3)CC2)cc1 (stereo unspecified)	inactive: 0.3%
CCOP(C)(=S)SCC(=O)NC(C)C(=O)O (stereo unspecified)	inactive: -0.2%
O=C(OC1CN2CCC1CC2)c1cccc([N+](=O)[O-])c1 (stereo unspecified)	inactive
CCOC(=O)c1ccc(NP(C)(=O)Oc2ccc(OC)cc2)cc1 (stereo unspecified)	inactive: -0.3%
CP(=O)(Nc1ccccn1)Oc1ccc(Cl)cc1 (stereo unspecified)	inactive: -0.2%
CCN(CC)CCCOC(=O)C(O)(c1ccccc1)c1ccccc1	inactive: 0.4%
COc1cc(I)ccc1[As](=O)(O)O	inactive
COc1ccc2nc(NP(=O)(c3ccccc3)c3ccccc3)sc2c1	inactive
C[As](=O)(O)c1cccc(C(=O)O)c1	inactive
O=[As](O)(c1ccc(O)cc1)c1ccccc1O	inactive
Cc1cccc(C)c1OP(C)(N)=O (stereo unspecified)	inactive: -0.4%
CC(C)(C)c1ccc(OP(C)(=O)Nc2ccc(SC(F)(F)F)cc2)cc1 (stereo unspecified)	inactive: 0.5%
O=[N+]([O-])c1ccc2c(c1)C=Nc1ccccc1O2	inactive: 0.5%
CCOC(=O)c1ccc(NP(C)(=O)Oc2ccccc2)cc1 (stereo unspecified)	inactive: -0.2%
CC(C)c1ccc(OP(=O)(Nc2ccccn2)Oc2ccccc2F)cc1 (stereo unspecified)	inactive
Cc1ccc(NP(C)(=O)Oc2ccccc2)c(C)c1 (stereo unspecified)	inactive: -0.2%
COc1ccccc1OP(C)(=O)Nc1ccc(C)cc1 (stereo unspecified)	inactive: -0.3%
COc1ccc(OP(C)(=O)Nc2cccc(F)c2)cc1 (stereo unspecified)	inactive: -0.2%
COc1ccccc1OP(C)(=O)Nc1cc(Cl)ccc1C (stereo unspecified)	inactive: -0.1%
Cc1cc(C)cc(OP(C)(N)=O)c1 (stereo unspecified)	inactive: -0.3%

SMILES	activation
Cc1cc(C)cc(OP(C)(=O)Nc2cccc(C(F)(F)F)c2)c1 (stereo unspecified)	inactive: -0.1%
COc1ccc(OP(C)(=O)Nc2ccccc2Br)cc1 (stereo unspecified)	inactive: -0.3%
COc1ccccc1OP(C)(=O)Nc1ccc(C)c(C)c1 (stereo unspecified)	inactive: 0.2%
Cc1nc2ccc3ccccc3c2o1.O=[N+]([O-])c1cc([N+](=O)[O-])c(O)c([N+](=O)[O-])c1	inactive: 0.4%
CP(=O)(Nc1ccc(Cl)cc1Cl)Oc1ccccc1 (stereo unspecified)	inactive: 0.2%
CP(=O)(OCCOc1ccccc1)OCCOc1ccccc1	inactive: -0.7%
COc1ccccc1OP(C)(=O)Nc1ccc(Br)cc1 (stereo unspecified)	inactive: -0.3%
Clc1ccc(Cl)c(NC2=NCC(CBr)S2)c1 (stereo unspecified)	inactive
CN(C)CCOC(=O)C(O)(c1ccccc1)C1CCCC1 (stereo unspecified)	inactive
COc1ccc(OP(C)(=O)Nc2ccccn2)cc1 (stereo unspecified)	inactive: -0.1%
Oc1ccccc1CNc1ccccn1	inactive
Cc1c(NP(C)(=O)Oc2ccc(C(C)C)cc2)c(=O)n(-c2ccccc2)n1C (stereo unspecified)	inactive: -0.1%
O=[N+]([O-])c1cc([N+](=O)[O-])c(Nc2ccccn2)c([N+](=O)[O-])c1	inactive: 0.8%
CCc1ccc(OP(C)(=O)O)cc1	inactive: -0.2%
COc1ccccc1OP(C)(=O)Nc1ccc(C)cc1C (stereo unspecified)	inactive: -0.1%
CP(=O)(Nc1ccccn1)Oc1ccccc1 (stereo unspecified)	inactive: 0.2%
COc1ccc(OP(C)(=O)Nc2ccc(Br)cc2)cc1 (stereo unspecified)	inactive: -0.1%
CCN(CC)CC(O)COC(=O)C(O)(c1ccccc1)C1CCCCC1 (stereo unspecified)	inactive
CCc1ccc(OP(C)(=O)Nc2cccnc2)cc1 (stereo unspecified)	inactive: -0.3%
CP(=O)(Oc1ccccc1)N1CCOC1=O (stereo unspecified)	inactive: -0.2%
O=C(OCCCN1CCCC1)C(O)(c1ccccc1)C1CCCCC1 (stereo unspecified)	inactive: -0.1%
O=[N+]([O-])c1cccc2n[nH]nc12	inactive

SMILES	activation
COc1ccccc1OP(C)(=O)Nc1c(C)n(C)n(-c2ccccc2)c1=O (stereo unspecified)	inactive: -0.1%
CP(=O)(Nc1ccc(Cl)cc1)Oc1ccc(F)cc1 (stereo unspecified)	inactive: -0.1%
C[N+]1=C2C=CC=CC=C2SC12C([N+](=O)[O-])=CC([N+](=O)[O-])=C[C-]2[N+](=O)[O-] (stereo unspecified)	inactive
COc1ccccc1OP(C)(=O)Nc1ccccc1Br (stereo unspecified)	inactive: -0.3%
CC(C)(C)c1ccc(OP(C)(=O)O)cc1	inactive: -0.1%
Nc1ccc([As](=O)(O)c2ccc(N)cc2)cc1	inactive
CC1CCN(C(=O)Oc2c(Cl)cc(Cl)c3cccnc23)CC1	inactive
CN(C)C(=O)c1c([N+](=O)[O-])cc([N+](=O)[O-])cc1[N+](=O)[O-]	inactive: -0.3%
CC(C)=N/N=C(\N)N[N+](=O)[O-]	inactive
CP(=O)(OC12CC3CC(CC(C3)C1)C2)OC12CC3CC(CC(C3)C1)C2	inactive: 0%
CCOC(=O)c1ccc(NP(C)(=O)Oc2ccc(Cl)cc2)cc1 (stereo unspecified)	inactive: -0.3%
O=[N+]([O-])c1cccc(NC2=NCC(CBr)S2)c1 (stereo unspecified)	inactive
O=P(Nc1ccccn1)(c1ccc(Br)cc1)c1ccc(Br)cc1	inactive
COc1ccc(OP(C)(=O)Nc2cccc(Br)c2)cc1 (stereo unspecified)	inactive: -0.1%
COc1ccc(NP(C)(=O)Oc2ccccc2OC)cc1 (stereo unspecified)	inactive: -0.7%
CN(C)CCOC(=O)C(O)(c1ccccc1)C1CCCCC1 (stereo unspecified)	inactive: 0%
O=[N+]([O-])c1cc([N+](=O)[O-])c(NCC2CCS(=O)(=O)C2)c([N+](=O)[O-])c1 (stereo unspecified)	inactive: -0.3%
Cc1cc(-c2cccc3ccccc23)c(C)cn1.O=[N+]([O-])c1cc([N+](=O)[O-])c(O)c([N+](=O)[O-])c1	inactive: -0.3%
